Measured values: BindingDB's records for PubMed 11714875 (Vrije Universiteit, 2001)

By UniProt entry, the sequences of proteins in these tests, tags left out. Where a name states a change or a piece, a line headed by the entry shows the natural chain unless it says otherwise.
UniProt Q5PPG3, whole entry: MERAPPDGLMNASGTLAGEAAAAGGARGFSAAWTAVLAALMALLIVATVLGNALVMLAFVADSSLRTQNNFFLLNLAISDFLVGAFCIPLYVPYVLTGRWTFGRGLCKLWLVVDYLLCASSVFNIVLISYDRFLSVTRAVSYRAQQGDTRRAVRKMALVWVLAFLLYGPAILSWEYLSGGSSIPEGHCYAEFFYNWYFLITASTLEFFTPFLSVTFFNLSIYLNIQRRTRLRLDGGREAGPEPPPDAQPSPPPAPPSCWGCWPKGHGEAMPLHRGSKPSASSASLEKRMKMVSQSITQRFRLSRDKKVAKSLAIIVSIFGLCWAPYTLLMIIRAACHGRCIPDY
UniProt Q9Y5N1: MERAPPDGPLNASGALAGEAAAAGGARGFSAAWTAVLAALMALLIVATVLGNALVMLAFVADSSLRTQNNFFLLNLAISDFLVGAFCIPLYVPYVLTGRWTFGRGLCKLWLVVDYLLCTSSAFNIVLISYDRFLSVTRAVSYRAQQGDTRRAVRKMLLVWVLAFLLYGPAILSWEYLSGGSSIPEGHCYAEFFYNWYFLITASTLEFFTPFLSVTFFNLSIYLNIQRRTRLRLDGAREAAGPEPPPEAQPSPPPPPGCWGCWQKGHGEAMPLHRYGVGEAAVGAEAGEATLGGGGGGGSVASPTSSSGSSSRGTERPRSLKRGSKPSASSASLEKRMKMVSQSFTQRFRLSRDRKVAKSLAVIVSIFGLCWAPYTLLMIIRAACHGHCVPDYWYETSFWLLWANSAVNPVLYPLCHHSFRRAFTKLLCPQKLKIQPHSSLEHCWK

How the values were obtained:
Hrh3 protein = Hrh3 protein (Rattus norvegicus, UniProt Q5PPG3)
Histamine H3 receptor = Histamine H3 receptor (Homo sapiens, UniProt Q9Y5N1)

SMILES	Ki (Hrh3 protein) [nM]	Ki (Histamine H3 receptor) [nM]
NCCCCCc1c[nH]cn1 [5-(1H-imidazol-5-yl)pentan-1-amine]	5.01	
NC(=NCc1ccc(Cl)cc1)SCCCc1cnc[nH]1 [VUF 9153]	0.87	3.8
